According to US20220226343A1:

Assays:
[1] = Mouse PK, oral 1 mg/kg; assay type: in vivo; conditions: oral (gavage) 1 mg/kg, male FVB mice; 15w in a separate study
[2] = tested on: NFκB activation; experiment: NFκB reporter assay in CDK8/19 double-knockout 293 reporter cells; conditions: CDK8/19 double-knockout reporter cells
[3] = tested on: CDK8/19; experiment: NFκB reporter assay in parental 293 reporter cells; conditions: read-out: NFκB activity Assay IC50; parental 293-derived reporter cell line
[4] = tested on: alkaline phosphatase (ALPase); conditions: concentration that enhances ALPase activity to 200% of control, ST2 cells; cited from earlier work
[5] = tested on: PSA expression in CRPC cell line C4-2; experiment: PSA expression in cell culture supernatant of C4-2 cells; conditions: read-out: PSA expression IC50; C4-2 culture supernatant, 4-day treatment, FBS-supplemented regular media

With `CN(C)C(=O)Cc1ccc(N2CCCN(c3ccnc4sc(C(N)=O)c(N)c34)CC2)cc1` the AUC [1] was 36.7 ng·h/mL, the t1/2 [1] was 37.2 min and the “effect on NFκB activation in CDK8/19-deficient cells” value [2] was “no effect”. The pIC50 [3] was 8.40, the “ALP activity Assay EC200” value [4] was 6.6 nM and the pIC50 [5] was 7.82.

pIC50: −log10 of the molar value.
